{
  "sequences": {"note": "The chains behind the UniProt entries cited, without tags or fusion partners. Residues count along the entry.", "UniProt P53355, whole entry": "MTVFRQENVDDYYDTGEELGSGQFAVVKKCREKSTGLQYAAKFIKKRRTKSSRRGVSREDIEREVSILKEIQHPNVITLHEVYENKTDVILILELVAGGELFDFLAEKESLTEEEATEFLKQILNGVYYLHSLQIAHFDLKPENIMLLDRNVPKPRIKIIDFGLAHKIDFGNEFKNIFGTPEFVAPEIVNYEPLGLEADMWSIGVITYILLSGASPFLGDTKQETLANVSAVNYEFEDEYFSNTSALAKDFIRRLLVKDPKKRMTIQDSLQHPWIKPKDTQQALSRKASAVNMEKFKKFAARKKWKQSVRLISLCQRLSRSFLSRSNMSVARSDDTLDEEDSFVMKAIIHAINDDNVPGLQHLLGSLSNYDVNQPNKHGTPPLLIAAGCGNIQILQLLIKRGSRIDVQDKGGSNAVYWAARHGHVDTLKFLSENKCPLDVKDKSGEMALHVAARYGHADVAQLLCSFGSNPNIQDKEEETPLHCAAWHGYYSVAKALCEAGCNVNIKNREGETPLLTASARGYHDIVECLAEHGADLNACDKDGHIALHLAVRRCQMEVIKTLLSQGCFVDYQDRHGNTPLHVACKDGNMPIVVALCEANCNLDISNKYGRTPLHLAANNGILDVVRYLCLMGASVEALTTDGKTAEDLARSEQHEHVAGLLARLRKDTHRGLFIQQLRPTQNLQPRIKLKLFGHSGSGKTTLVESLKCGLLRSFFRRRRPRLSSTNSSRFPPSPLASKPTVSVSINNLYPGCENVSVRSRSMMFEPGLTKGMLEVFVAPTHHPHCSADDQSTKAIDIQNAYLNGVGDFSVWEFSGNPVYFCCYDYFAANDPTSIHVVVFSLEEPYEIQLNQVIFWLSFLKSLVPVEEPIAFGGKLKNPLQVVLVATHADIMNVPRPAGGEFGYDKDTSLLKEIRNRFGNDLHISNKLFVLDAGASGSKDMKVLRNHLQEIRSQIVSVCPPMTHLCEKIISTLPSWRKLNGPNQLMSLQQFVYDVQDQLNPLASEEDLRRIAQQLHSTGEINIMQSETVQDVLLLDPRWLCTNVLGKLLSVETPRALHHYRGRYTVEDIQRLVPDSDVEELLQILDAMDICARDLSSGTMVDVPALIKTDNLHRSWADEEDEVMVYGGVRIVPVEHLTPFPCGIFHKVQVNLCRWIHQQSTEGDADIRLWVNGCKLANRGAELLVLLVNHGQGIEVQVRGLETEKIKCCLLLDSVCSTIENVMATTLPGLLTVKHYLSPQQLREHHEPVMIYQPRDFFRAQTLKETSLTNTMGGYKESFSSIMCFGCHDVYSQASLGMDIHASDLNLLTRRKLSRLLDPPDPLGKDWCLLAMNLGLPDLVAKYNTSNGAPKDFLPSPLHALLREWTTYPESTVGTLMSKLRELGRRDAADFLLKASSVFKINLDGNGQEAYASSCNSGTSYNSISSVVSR", "UniProt Q99755, whole entry": "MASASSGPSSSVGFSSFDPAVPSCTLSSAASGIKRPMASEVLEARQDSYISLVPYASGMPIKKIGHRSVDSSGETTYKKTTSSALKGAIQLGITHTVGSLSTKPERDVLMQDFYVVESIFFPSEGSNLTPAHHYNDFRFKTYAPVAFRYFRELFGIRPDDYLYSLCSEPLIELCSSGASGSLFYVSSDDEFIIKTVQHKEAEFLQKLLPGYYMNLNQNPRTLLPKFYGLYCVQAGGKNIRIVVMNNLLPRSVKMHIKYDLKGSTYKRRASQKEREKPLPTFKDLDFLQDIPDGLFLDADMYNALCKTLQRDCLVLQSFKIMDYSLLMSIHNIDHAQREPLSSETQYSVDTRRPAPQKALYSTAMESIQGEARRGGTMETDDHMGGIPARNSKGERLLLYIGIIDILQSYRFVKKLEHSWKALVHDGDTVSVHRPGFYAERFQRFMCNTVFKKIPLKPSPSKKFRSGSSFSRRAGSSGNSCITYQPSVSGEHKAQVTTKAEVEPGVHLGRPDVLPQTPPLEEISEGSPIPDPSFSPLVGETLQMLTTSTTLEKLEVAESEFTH", "UniProt P50613, whole entry": "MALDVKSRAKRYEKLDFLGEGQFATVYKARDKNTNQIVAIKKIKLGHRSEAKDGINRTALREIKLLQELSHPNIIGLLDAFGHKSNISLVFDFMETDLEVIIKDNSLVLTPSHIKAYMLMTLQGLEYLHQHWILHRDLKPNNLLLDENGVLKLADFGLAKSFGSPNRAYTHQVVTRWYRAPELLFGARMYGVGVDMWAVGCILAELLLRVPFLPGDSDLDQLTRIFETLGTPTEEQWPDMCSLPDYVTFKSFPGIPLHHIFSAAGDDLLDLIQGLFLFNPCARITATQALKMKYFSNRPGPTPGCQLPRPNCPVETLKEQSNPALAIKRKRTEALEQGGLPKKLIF", "UniProt O60285, whole entry": "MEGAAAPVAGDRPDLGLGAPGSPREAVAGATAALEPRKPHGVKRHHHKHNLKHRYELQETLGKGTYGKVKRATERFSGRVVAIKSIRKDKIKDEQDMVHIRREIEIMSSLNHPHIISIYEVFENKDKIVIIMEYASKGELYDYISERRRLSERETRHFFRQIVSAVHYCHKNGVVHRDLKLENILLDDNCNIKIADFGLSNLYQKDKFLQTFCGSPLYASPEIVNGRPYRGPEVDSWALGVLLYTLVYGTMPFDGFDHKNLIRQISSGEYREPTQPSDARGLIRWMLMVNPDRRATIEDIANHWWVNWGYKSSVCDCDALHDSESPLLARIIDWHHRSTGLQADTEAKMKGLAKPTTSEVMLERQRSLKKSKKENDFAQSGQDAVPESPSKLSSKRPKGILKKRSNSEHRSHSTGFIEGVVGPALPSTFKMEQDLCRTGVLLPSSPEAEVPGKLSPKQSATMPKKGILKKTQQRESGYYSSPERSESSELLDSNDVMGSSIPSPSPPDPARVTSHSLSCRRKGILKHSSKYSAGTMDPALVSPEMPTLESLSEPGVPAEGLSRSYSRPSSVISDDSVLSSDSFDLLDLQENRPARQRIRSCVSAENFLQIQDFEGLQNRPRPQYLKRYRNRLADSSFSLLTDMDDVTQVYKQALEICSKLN", "UniProt P23439, whole entry": "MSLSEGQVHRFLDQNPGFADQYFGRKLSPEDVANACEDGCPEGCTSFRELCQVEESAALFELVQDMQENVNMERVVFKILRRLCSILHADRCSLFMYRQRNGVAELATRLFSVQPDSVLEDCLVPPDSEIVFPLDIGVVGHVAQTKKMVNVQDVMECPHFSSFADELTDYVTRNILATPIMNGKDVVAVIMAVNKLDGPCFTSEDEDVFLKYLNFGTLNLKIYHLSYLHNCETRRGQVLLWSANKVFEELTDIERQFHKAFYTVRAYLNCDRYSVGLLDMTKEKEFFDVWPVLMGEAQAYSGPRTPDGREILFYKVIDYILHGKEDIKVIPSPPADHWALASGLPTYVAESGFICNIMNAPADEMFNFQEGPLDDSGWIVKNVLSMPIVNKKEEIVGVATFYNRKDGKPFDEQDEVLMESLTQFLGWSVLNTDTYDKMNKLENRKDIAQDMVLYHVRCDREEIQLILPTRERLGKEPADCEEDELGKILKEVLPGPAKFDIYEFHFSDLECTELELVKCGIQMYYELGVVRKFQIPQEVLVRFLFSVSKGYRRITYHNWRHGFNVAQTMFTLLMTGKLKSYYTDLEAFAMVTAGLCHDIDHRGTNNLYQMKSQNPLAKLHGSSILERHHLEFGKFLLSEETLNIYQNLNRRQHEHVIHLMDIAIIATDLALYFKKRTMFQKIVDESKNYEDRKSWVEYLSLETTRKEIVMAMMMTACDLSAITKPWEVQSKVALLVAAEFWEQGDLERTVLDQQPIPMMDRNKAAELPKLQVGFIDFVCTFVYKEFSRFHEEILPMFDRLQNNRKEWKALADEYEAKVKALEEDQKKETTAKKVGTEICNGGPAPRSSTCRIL", "UniProt P22303, 32-614 limits assumed": "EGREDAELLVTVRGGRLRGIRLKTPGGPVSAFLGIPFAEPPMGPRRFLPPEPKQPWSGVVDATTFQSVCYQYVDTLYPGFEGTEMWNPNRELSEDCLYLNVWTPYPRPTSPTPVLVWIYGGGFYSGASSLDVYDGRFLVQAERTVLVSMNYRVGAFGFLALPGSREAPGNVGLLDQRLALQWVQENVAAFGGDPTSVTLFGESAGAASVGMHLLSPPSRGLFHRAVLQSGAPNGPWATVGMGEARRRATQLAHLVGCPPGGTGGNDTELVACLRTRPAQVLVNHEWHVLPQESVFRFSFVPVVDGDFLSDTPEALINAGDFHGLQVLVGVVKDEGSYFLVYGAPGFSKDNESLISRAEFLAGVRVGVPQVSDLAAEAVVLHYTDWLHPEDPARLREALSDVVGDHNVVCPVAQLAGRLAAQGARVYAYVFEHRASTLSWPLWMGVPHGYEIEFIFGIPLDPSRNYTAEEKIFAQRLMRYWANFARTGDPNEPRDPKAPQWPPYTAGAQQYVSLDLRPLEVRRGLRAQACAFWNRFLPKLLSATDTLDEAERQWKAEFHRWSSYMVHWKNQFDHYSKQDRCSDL", "UniProt P06239, whole entry": "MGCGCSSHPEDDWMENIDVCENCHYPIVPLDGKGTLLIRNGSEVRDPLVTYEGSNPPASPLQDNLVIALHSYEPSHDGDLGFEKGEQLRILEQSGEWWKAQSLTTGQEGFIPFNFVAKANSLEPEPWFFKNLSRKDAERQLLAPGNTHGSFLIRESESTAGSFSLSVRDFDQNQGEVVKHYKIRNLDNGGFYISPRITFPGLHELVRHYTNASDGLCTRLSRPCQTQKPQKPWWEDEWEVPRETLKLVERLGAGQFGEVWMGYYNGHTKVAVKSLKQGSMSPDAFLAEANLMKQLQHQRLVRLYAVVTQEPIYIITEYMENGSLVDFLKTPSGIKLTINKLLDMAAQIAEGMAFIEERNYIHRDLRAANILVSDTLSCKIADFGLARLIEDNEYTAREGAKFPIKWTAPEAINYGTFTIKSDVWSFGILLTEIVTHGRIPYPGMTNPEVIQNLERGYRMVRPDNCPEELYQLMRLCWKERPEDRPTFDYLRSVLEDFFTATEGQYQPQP", "UniProt P35354, 18-604 limits assumed": "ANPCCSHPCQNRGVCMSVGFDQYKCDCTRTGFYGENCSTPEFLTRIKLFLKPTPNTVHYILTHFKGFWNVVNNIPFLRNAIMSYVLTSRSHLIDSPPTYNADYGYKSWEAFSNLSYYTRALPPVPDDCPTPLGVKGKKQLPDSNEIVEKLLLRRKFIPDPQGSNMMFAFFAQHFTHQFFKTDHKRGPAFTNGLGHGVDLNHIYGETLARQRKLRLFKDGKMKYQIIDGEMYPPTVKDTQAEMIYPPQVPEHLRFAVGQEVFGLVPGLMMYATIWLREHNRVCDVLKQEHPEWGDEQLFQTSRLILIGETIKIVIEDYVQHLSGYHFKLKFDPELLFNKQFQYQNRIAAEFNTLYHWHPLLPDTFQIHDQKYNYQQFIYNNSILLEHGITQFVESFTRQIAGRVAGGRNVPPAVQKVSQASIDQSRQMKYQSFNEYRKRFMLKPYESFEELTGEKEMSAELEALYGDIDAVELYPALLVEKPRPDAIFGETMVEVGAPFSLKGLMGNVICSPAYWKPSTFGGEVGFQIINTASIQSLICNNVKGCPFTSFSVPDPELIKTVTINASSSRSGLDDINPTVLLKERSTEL", "UniProt P25774, 115-331 limits assumed": "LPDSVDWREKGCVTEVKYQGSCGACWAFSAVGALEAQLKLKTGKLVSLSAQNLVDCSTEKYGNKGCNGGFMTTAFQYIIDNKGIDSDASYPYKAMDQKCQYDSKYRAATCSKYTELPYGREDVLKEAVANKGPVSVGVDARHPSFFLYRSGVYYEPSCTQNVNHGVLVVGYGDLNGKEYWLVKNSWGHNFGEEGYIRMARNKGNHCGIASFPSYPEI", "UniProt P11362, 22-822 limits assumed": "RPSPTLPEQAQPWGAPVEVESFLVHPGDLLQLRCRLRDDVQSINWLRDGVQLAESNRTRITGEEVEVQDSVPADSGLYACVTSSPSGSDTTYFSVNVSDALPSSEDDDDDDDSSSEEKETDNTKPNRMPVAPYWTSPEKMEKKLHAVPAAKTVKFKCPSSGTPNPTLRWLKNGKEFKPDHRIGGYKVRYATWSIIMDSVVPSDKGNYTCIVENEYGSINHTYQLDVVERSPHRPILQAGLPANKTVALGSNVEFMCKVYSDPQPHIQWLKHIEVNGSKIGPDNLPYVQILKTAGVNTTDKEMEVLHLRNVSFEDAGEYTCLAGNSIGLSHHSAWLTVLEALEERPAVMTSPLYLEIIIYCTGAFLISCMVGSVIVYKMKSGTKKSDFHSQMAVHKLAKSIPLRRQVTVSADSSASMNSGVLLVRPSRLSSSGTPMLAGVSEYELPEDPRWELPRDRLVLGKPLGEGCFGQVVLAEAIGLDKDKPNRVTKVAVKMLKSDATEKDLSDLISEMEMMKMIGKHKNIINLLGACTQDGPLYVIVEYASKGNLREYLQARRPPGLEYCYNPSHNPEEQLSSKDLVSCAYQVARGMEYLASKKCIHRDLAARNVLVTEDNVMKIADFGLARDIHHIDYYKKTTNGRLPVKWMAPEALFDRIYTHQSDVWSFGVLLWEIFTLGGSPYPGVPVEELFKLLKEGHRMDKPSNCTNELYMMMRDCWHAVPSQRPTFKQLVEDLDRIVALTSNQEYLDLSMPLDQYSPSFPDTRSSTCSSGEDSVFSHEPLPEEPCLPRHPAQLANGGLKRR"},
  "source": "patent US20260384438A1",
  "about": "“PYRROLOPYRIMIDINE CARBOXAMIDES” (published 2026)",
  "key": {"PIP5K1C": {"biological_target": "PIP5K1C (Homo sapiens, UniProt O60331)", "test": "Kinase profiling, Adapta", "conditions": "1 μM, KmATP"}, "PIK3CA/PIK3R3": {"biological_target": "PIK3CA/PIK3R3 (Homo sapiens, UniProt P42336)", "test": "Kinase profiling, Adapta", "conditions": "1 μM, KmATP"}, "LRRK2 FL": {"biological_target": "LRRK2 FL (Homo sapiens, UniProt Q5S007)", "test": "Kinase profiling, Adapta", "conditions": "1 μM, KmATP"}, "DAPK1": {"biological_target": "DAPK1 (Homo sapiens, UniProt P53355)", "test": "Kinase profiling, Adapta", "conditions": "1 μM, KmATP"}, "PIK3CD/PIK3R1": {"biological_target": "PIK3CD/PIK3R1 (Homo sapiens, UniProt O00329)", "test": "Kinase profiling, Adapta", "conditions": "1 μM, KmATP"}, "PIP5K1A": {"biological_target": "PIP5K1A (Homo sapiens, UniProt Q99755)", "test": "Kinase profiling, Adapta", "conditions": "1 μM, KmATP"}, "CAMK1 (CaMK1)": {"biological_target": "CAMK1 (CaMK1) (Homo sapiens, UniProt Q14012)", "test": "Kinase profiling, Adapta", "conditions": "1 μM, KmATP"}, "PIK3CB": {"biological_target": "PIK3CB (Homo sapiens, UniProt P42338)", "test": "Kinase profiling, Adapta", "conditions": "1 μM, KmATP"}, "CDK7/cyclin H/MNAT1": {"biological_target": "CDK7/cyclin H/MNAT1 (Homo sapiens, UniProt P50613)", "test": "Kinase profiling, Adapta", "conditions": "1 μM, KmATP"}, "NUAK1 (ARK5)": {"biological_target": "NUAK1 (ARK5) (Homo sapiens, UniProt O60285)", "test": "Kinase profiling, Adapta", "conditions": "1 μM, KmATP"}, "CDK9/cyclin T1": {"biological_target": "CDK9/cyclin T1 (Homo sapiens, UniProt P50750)", "test": "Kinase profiling, Adapta", "conditions": "1 μM, KmATP"}, "IRAK1": {"biological_target": "IRAK1 (Homo sapiens, UniProt P51617)", "test": "Kinase profiling, Adapta", "conditions": "1 μM, KmATP"}, "LRRK2 Hu Phos": {"biological_target": "LRRK2 Hu Phos (Homo sapiens, UniProt Q5S007)", "test": "Kinase profiling, Adapta", "conditions": "1 μM, KmATP"}, "PIK3C2G": {"biological_target": "PIK3C2G (Homo sapiens, UniProt O75747)", "test": "Kinase profiling, Adapta", "conditions": "1 μM, KmATP"}, "[1]": {"biological_target": "Epidermal growth factor receptor kinase (EGFR kinase) (Homo sapiens, UniProt P00533)", "test": "Secondary pharmacology, enzyme"}, "ALK4 Kinase": {"biological_target": "ALK4 Kinase (Homo sapiens, UniProt P36896)", "test": "Secondary pharmacology, enzyme"}, "[2]": {"biological_target": "Rho Associated, Coiled Coil Containing Protein Kinase 2 (ROCK2) (Homo sapiens, UniProt O75116)", "test": "Secondary pharmacology, enzyme"}, "Na+/K+ ATPase": {"test_system": "Na+/K+ ATPase", "test": "Secondary pharmacology, enzyme"}, "Phosphodiesterase PDE6": {"biological_target": "Phosphodiesterase PDE6 (Bos taurus, UniProt P11541+P23439)", "test": "Secondary pharmacology, enzyme"}, "Acetylcholinesterase": {"biological_target": "Acetylcholinesterase (Homo sapiens, UniProt P22303)", "test": "Secondary pharmacology, enzyme"}, "Aurora A kinase": {"biological_target": "Aurora A kinase (Homo sapiens, UniProt O14965)", "test": "Secondary pharmacology, enzyme"}, "[3]": {"biological_target": "Lymphocyte-specific protein tyrosine kinase (Homo sapiens, UniProt P06239)", "test": "Secondary pharmacology, enzyme"}, "Phosphodiesterase PDE4D2": {"biological_target": "Phosphodiesterase PDE4D2 (Homo sapiens, UniProt Q08499)", "test": "Secondary pharmacology, enzyme"}, "[4]": {"biological_target": "Prostaglandin-endoperoxide synthase 2 (COX2) (Homo sapiens, UniProt P35354)", "test": "Secondary pharmacology, enzyme"}, "[5]": {"biological_target": "Kinase insert domain receptor kinase (KDR) (Homo sapiens, UniProt P35968)", "test": "Secondary pharmacology, enzyme"}, "[6]": {"biological_target": "Mitogen activated protein kinase kinase kinase 7 (MAPKKK7) (Homo sapiens, UniProt O43318)", "test": "Secondary pharmacology, enzyme"}, "[7]": {"biological_target": "Glycogen synthase kinase-3 β (Homo sapiens, UniProt P49841)", "test": "Secondary pharmacology, enzyme"}, "[8]": {"biological_target": "Prostaglandin-endoperoxide synthase 1 (COX1) (Homo sapiens, UniProt P23219)", "test": "Secondary pharmacology, enzyme"}, "Cathepsin S": {"biological_target": "Cathepsin S (Homo sapiens, UniProt P25774)", "test": "Secondary pharmacology, enzyme"}, "Histone deacetylase 5": {"biological_target": "Histone deacetylase 5 (Homo sapiens, UniProt Q9UQL6)", "test": "Secondary pharmacology, enzyme"}, "[9]": {"biological_target": "Phosphodiesterase PDE10A2 (Homo sapiens, UniProt Q9Y233)", "test": "Secondary pharmacology, enzyme"}, "[10]": {"biological_target": "Fibroblast growth factor receptor 1 kinase (FGFR1 kinase) (Homo sapiens, UniProt P11362)", "test": "Secondary pharmacology, enzyme"}, "[11]": {"biological_target": "Rho Associated, Coiled Coil Containing Protein Kinase 1 (ROCK1) (Homo sapiens, UniProt Q13464)", "test": "Secondary pharmacology, enzyme"}, "c-kit kinase": {"biological_target": "c-kit kinase (Homo sapiens, UniProt P10721)", "test": "Secondary pharmacology, enzyme"}},
  "data": [
    {"smiles": "Cc1nc(C(F)(F)F)c2c(C(N)=O)c(N)n(-c3c(C)ccc(O)c3C)c2n1", "note": "(single isomer, unassigned)", "values": [
      {"measurement": "MEAN INHIBITION", "setting": "PIP5K1C", "result": "−4.695", "unit": "%"},
      {"measurement": "MEAN INHIBITION", "setting": "PIK3CA/PIK3R3", "result": "−2.464", "unit": "%"},
      {"measurement": "MEAN INHIBITION", "setting": "LRRK2 FL", "result": "−6.193", "unit": "%"},
      {"measurement": "MEAN INHIBITION", "setting": "DAPK1", "result": "−1.914", "unit": "%"},
      {"measurement": "MEAN INHIBITION", "setting": "PIK3CD/PIK3R1", "result": "−1.504", "unit": "%"},
      {"measurement": "MEAN INHIBITION", "setting": "PIP5K1A", "result": "−13.685", "unit": "%"},
      {"measurement": "MEAN INHIBITION", "setting": "CAMK1 (CaMK1)", "result": 11.522, "unit": "%"},
      {"measurement": "MEAN INHIBITION", "setting": "PIK3CB", "result": "−6.281", "unit": "%"},
      {"measurement": "MEAN INHIBITION", "setting": "CDK7/cyclin H/MNAT1", "result": 18.174, "unit": "%"},
      {"measurement": "MEAN INHIBITION", "setting": "NUAK1 (ARK5)", "result": 1.560, "unit": "%"},
      {"measurement": "MEAN INHIBITION", "setting": "CDK9/cyclin T1", "result": 16.235, "unit": "%"},
      {"measurement": "MEAN INHIBITION", "setting": "IRAK1", "result": "−2.983", "unit": "%"},
      {"measurement": "MEAN INHIBITION", "setting": "LRRK2 Hu Phos", "result": "−0.583", "unit": "%"},
      {"measurement": "MEAN INHIBITION", "setting": "PIK3C2G", "result": "−1.050", "unit": "%"},
      {"measurement": "Pharmacological mode of action", "setting": "[1]", "result": "Inactive"},
      {"measurement": "IC50", "setting": "[1]; read-out: Enzyme IC50", "result": "> 100", "unit": "µM"},
      {"measurement": "Pharmacological mode of action", "setting": "ALK4 Kinase", "result": "Inhibitor"},
      {"measurement": "IC50", "setting": "ALK4 Kinase; read-out: Enzyme IC50", "result": 0.19, "unit": "µM"},
      {"measurement": "Pharmacological mode of action", "setting": "[2]", "result": "Inactive"},
      {"measurement": "IC50", "setting": "[2]; read-out: Enzyme IC50", "result": "> 100", "unit": "µM"},
      {"measurement": "Pharmacological mode of action", "setting": "Na+/K+ ATPase", "result": "Inactive"},
      {"measurement": "IC50", "setting": "Na+/K+ ATPase; read-out: Enzyme IC50", "result": "> 100", "unit": "µM"},
      {"measurement": "Pharmacological mode of action", "setting": "Phosphodiesterase PDE6", "result": "Inactive"},
      {"measurement": "IC50", "setting": "Phosphodiesterase PDE6; read-out: Enzyme IC50", "result": "> 100", "unit": "µM"},
      {"measurement": "Pharmacological mode of action", "setting": "Acetylcholinesterase", "result": "Inactive"},
      {"measurement": "IC50", "setting": "Acetylcholinesterase; read-out: Enzyme IC50", "result": "> 100", "unit": "µM"},
      {"measurement": "Pharmacological mode of action", "setting": "Aurora A kinase", "result": "Inactive"},
      {"measurement": "IC50", "setting": "Aurora A kinase; read-out: Enzyme IC50", "result": "> 100", "unit": "µM"},
      {"measurement": "Pharmacological mode of action", "setting": "[3]", "result": "Inhibitor"},
      {"measurement": "IC50", "setting": "[3]; read-out: Enzyme IC50", "result": 53, "unit": "µM"},
      {"measurement": "Pharmacological mode of action", "setting": "Phosphodiesterase PDE4D2", "result": "Inactive"},
      {"measurement": "IC50", "setting": "Phosphodiesterase PDE4D2; read-out: Enzyme IC50", "result": "> 100", "unit": "µM"},
      {"measurement": "Pharmacological mode of action", "setting": "[4]", "result": "Inactive"},
      {"measurement": "IC50", "setting": "[4]; read-out: Enzyme IC50", "result": "> 100", "unit": "µM"},
      {"measurement": "Pharmacological mode of action", "setting": "[5]", "result": "Inhibitor"},
      {"measurement": "IC50", "setting": "[5]; read-out: Enzyme IC50", "result": 78, "unit": "µM"},
      {"measurement": "Pharmacological mode of action", "setting": "[6]", "result": "Inactive"},
      {"measurement": "IC50", "setting": "[6]; read-out: Enzyme IC50", "result": "> 100", "unit": "µM"},
      {"measurement": "Pharmacological mode of action", "setting": "[7]", "result": "Inhibitor"},
      {"measurement": "IC50", "setting": "[7]; read-out: Enzyme IC50", "result": 1.1, "unit": "µM"},
      {"measurement": "Pharmacological mode of action", "setting": "[8]", "result": "Inactive"},
      {"measurement": "IC50", "setting": "[8]; read-out: Enzyme IC50", "result": "> 100", "unit": "µM"},
      {"measurement": "Pharmacological mode of action", "setting": "Cathepsin S", "result": "Inactive"},
      {"measurement": "IC50", "setting": "Cathepsin S; read-out: Enzyme IC50", "result": "> 10", "unit": "µM"},
      {"measurement": "Pharmacological mode of action", "setting": "Histone deacetylase 5", "result": "Inactive"},
      {"measurement": "IC50", "setting": "Histone deacetylase 5; read-out: Enzyme IC50", "result": "> 10", "unit": "µM"},
      {"measurement": "Pharmacological mode of action", "setting": "[9]", "result": "Inactive"},
      {"measurement": "IC50", "setting": "[9]; read-out: Enzyme IC50", "result": "> 100", "unit": "µM"},
      {"measurement": "Pharmacological mode of action", "setting": "[10]", "result": "Inhibitor"},
      {"measurement": "IC50", "setting": "[10]; read-out: Enzyme IC50", "result": 40, "unit": "µM"},
      {"measurement": "Pharmacological mode of action", "setting": "[11]", "result": "Inactive"},
      {"measurement": "IC50", "setting": "[11]; read-out: Enzyme IC50", "result": "> 100", "unit": "µM"},
      {"measurement": "Pharmacological mode of action", "setting": "c-kit kinase", "result": "Inhibitor"},
      {"measurement": "IC50", "setting": "c-kit kinase; read-out: Enzyme IC50", "result": 32, "unit": "µM"}
    ]}
  ]
}
